Data published in PubChem BioAssay (NCI).
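Briefly, cells in 96-well plates were exposed to five compound concentrations for 48 h, and endpoints were estimated by linear interpolation. GI50: concentration for 50% inhibition of growth.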

Assays:
Test in all cases: NCI-60 cell line screen, 48 h; in the data active = GI50 below about 0.43 µM; inactive = the rest
786-0 renal = system: 786-0 renal
A498 renal = system: A498 renal
A549 NSCLC = system: A549 NSCLC
ACHN renal = system: ACHN renal
CCRF-CEM leukemia = system: CCRF-CEM leukemia
COLO 205 colon = system: COLO 205 colon
DU-145 prostate = system: DU-145 prostate
EKVX NSCLC = system: EKVX NSCLC
HCC-2998 colon = system: HCC-2998 colon
HCT-116 colon = system: HCT-116 colon
HL-60(TB) leukemia = system: HL-60(TB) leukemia
HOP-62 NSCLC = system: HOP-62 NSCLC
HOP-92 NSCLC = system: HOP-92 NSCLC
HT29 colon = system: HT29 colon
IGROV1 ovarian = system: IGROV1 ovarian
K-562 leukemia = system: K-562 leukemia
KM12 colon = system: KM12 colon
LOX IMVI melanoma = system: LOX IMVI melanoma
M14 melanoma = system: M14 melanoma
MALME-3M melanoma = system: MALME-3M melanoma
MCF7 breast = system: MCF7 breast
MDA-MB-231 breast = system: MDA-MB-231 breast
MDA-MB-435 = system: MDA-MB-435
MOLT-4 leukemia = system: MOLT-4 leukemia
NCI-H226 lung = system: NCI-H226 lung
NCI-H23 lung = system: NCI-H23 lung
NCI-H460 lung = system: NCI-H460 lung
NCI/ADR-RES ovarian = system: NCI/ADR-RES ovarian
OVCAR-4 ovarian = system: OVCAR-4 ovarian
OVCAR-5 ovarian = system: OVCAR-5 ovarian
OVCAR-8 ovarian = system: OVCAR-8 ovarian
RPMI-8226 leukemia = system: RPMI-8226 leukemia
RXF 393 renal = system: RXF 393 renal
SF-268 CNS = system: SF-268 CNS
SF-295 CNS = system: SF-295 CNS
SF-539 CNS = system: SF-539 CNS
SK-MEL-28 melanoma = system: SK-MEL-28 melanoma
SK-MEL-5 melanoma = system: SK-MEL-5 melanoma
SK-OV-3 ovarian = system: SK-OV-3 ovarian
SN12C renal = system: SN12C renal
SNB-19 CNS = system: SNB-19 CNS
SNB-75 CNS = system: SNB-75 CNS
SR leukemia = system: SR leukemia
SW-620 colon = system: SW-620 colon
T-47D breast = system: T-47D breast
TK-10 renal = system: TK-10 renal
U251 CNS = system: U251 CNS
UACC-257 melanoma = system: UACC-257 melanoma
UACC-62 melanoma = system: UACC-62 melanoma
UO-31 renal = system: UO-31 renal

Measured: GI50

O=C1NC(=NC2CCCCC2)C2(CCN(CCc3ccccc3)CC2)N1c1ccccc1
inactive: 786-0 renal > 100 µM | A498 renal 68.4 µM | A549 NSCLC > 100 µM | ACHN renal > 100 µM | CCRF-CEM leukemia > 100 µM | COLO 205 colon > 100 µM | DU-145 prostate > 100 µM | EKVX NSCLC > 100 µM | HCC-2998 colon > 100 µM | HCT-116 colon > 100 µM | HL-60(TB) leukemia 93.8 µM | HOP-62 NSCLC > 100 µM | HOP-92 NSCLC > 100 µM | HT29 colon 51 µM | IGROV1 ovarian > 100 µM | K-562 leukemia 99.4 µM | KM12 colon 59.5 µM | LOX IMVI melanoma > 100 µM | M14 melanoma > 100 µM | MALME-3M melanoma > 100 µM | MCF7 breast > 100 µM | MDA-MB-231 breast > 100 µM | MDA-MB-435 = > 100 µM | MOLT-4 leukemia 60.1 µM | NCI-H226 lung > 100 µM | NCI-H23 lung > 100 µM | NCI-H460 lung > 100 µM | NCI/ADR-RES ovarian 46.1 µM | OVCAR-4 ovarian 92.2 µM | OVCAR-5 ovarian > 100 µM | OVCAR-8 ovarian > 100 µM | RPMI-8226 leukemia 77.4 µM | RXF 393 renal > 100 µM | SF-268 CNS > 100 µM | SF-295 CNS > 100 µM | SF-539 CNS > 100 µM | SK-MEL-28 melanoma > 100 µM | SK-MEL-5 melanoma > 100 µM | SK-OV-3 ovarian > 100 µM | SN12C renal > 100 µM | SNB-19 CNS 60.9 µM | SNB-75 CNS > 100 µM | SR leukemia 65 µM | SW-620 colon > 100 µM | T-47D breast 51.7 µM | TK-10 renal > 100 µM | U251 CNS 79.1 µM | UACC-257 melanoma 60.8 µM | UACC-62 melanoma 78.8 µM | UO-31 renal 21.7 µM
